The results in this text go back to publication PMC10907358, “Identification of oleic acid as an endogenous ligand of GPR3” (Cell Research, 2024).

Chains of the proteins cited; added tags and fusions are not shown. Lines headed by an entry give the natural chain unless they say otherwise; changes in a name come on top.
UniProt P46089: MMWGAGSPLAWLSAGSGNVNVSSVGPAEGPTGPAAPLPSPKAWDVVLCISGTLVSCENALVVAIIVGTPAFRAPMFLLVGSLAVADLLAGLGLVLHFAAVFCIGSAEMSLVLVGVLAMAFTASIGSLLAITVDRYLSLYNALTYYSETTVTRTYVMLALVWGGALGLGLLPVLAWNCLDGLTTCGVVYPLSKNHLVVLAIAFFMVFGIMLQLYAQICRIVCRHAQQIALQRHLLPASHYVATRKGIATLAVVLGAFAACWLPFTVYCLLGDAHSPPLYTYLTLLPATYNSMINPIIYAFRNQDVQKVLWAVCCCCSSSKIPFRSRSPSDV

As a reminder, the EC50 is the midpoint of the concentration-response curve. Read a high EC50 as a less potent agent.

This assay addresses T1, GPR3 (Homo sapiens, UniProt P46089).
T1 construct: expressed in transfected cells
The experiment in a line: GloSensor cAMP assay in GPR3 stably expressing AD293 cell line (agonist mode). It is filed as cell-based. Particulars: Ec50, cAMP induction. As for the experimental part:
The GloSensor cAMP assay was performed according to the instructions of Promega. AD293 cells were split into 6-well plate (300,000 cells/mL) and then transfected with the pGloSensor™-22F cAMP plasmid and pcDNA3-GPR3 plasmid by Lipofectamine 2000, at a ratio of 2:1 (μL:μg). 24 h after transfection, cells were split into 96-well plate for another 24 h incubation. After removal of cell medium, 90 μL of 3% v/v (the GloSensor cAMP reagent vs serum-free medium) substrate was added into each well. After 2 h incubation at RT, background measurements were taken, and then 10 μL 10× stock compounds were added for the second measurements of ligand activation via EnVision 2105 (PerkinElmer). Relative cAMP level was calculated by the cAMP level after addition of ligand divided by the cAMP level before addition of ligand (basal level). Stock FAs (i.e., 10–50 mM) were solubilized in DMSO, then diluted in cell culture buffer to designated concentrations and sonicated to ensure that they were evenly distributed in the buffer before being added to cells.
AD293 cells were split into 6-well plate (300,000 cells/mL), and then transfected with the pGloSensor™-22F cAMP plasmid and the pcDNA6-GPR3-3× FLAG plasmid (WT receptor or the mutants, F120A^3.36, W260A^6.48, L283F^7.39, A201W^5.46, Y280A^7.36, H96A^2.60 and H96A^2.60/Y280A^7.36) by Lipofectamine 2000 at a ratio of 2:1 (μL:μg). […]

For `c1ccc2c(c1)[I+]c1ccccc1-2` [DPI, diphenyleneiodonium chloride], the EC50 was determined as 315 µM.
